For this experiment, the target named is T1, GLP-1 receptor (GLP-1R) on rat insulinoma cells RINm5F (rat (rat insulinoma cells RINm5F), UniProt P32301 22-463).
T1 sequence (looked up): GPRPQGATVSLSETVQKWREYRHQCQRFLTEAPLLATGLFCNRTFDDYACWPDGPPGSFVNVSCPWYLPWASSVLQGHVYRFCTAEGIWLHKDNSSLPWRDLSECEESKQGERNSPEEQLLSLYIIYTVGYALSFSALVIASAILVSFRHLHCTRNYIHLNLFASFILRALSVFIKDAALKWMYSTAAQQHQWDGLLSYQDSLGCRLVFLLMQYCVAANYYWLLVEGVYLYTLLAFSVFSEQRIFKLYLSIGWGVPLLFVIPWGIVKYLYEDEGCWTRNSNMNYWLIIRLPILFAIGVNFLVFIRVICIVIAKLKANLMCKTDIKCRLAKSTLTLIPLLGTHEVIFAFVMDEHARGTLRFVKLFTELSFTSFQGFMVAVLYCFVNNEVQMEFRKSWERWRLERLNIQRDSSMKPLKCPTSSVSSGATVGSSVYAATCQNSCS
Briefly: cell-based or functional assay.

B1: Z1Z2/GLTe complex (other)
chain 1: GAMATQAPTFTQPLQSVVVLEGSTATFEAHISGFPVPEVSWFRDGQVISTSTLPGVQISFSDGRAKLTIPAVTKANSGRYSLKATNGSGQATSTAELLVKAETAPPNFVQRLQSMTVRQGSQVRLQVRVTGIPTPVVKFYRDGAEIQSSLDFQISQEGDLYSLLIAEAYPEDSGTYSVNATNSVGRATSTAELLVQG
chain 2: HAEGTFTSDVSSYLEGQAAKEFIAWLVKGRGGGGGSGGGGSGGGGSAMATSELSSEVSEENSERREAFWAEWKDLTLSTRPEEGSSLHEEDTQRHETYHQQGQSQVLVQRSPWLMMRMGILGRGLQEYQLPYQRVLP
For B1, the “EC50 of cAMP production by RINm5F cells (cAMP-Glo Assay)” value stood at 0.35 nM.

Source of the values: US20170360949A1 (TIANJIN INSTITUTE OF INDUSTRIAL BIOTECHNOLOGY CHINESE …, published 2017).
